US12202827B2, “Aldosterone synthase inhibitor” (DAMIAN PHARMA AG, priority 2016, dated 2025)
Like-named read-outs stand apart in the source and are kept apart here.

Assay by HPLC, anhydrous, solvent free (25° C./60% RH, 1 month): 99.5
Assay by HPLC, anhydrous, solvent free (25° C./60% RH, 3 months): 99.8
Assay by HPLC, anhydrous, solvent free (25° C./60% RH, 6 months): 99.6
Assay by HPLC, anhydrous, solvent free (25° C./60% RH, 9 months): 99.7
Assay by HPLC, anhydrous, solvent free (25° C./60% RH, 12 months): 100.3
Assay by HPLC, anhydrous, solvent free (25° C./60% RH, Initial): 99.9
Assay by HPLC, anhydrous, solvent free (30° C./65%RH, 1 month): 99.6
Assay by HPLC, anhydrous, solvent free (30° C./65%RH, 3 months): 100.1
Assay by HPLC, anhydrous, solvent free (30° C./65%RH, 6 months): 99.6
Assay by HPLC, anhydrous, solvent free (30° C./65%RH, 9 months): 99.6
Assay by HPLC, anhydrous, solvent free (30° C./65%RH, 12 months): 99.5
Assay by HPLC, anhydrous, solvent free (30° C./65%RH, Initial): 99.9
Assay by HPLC, anhydrous, solvent free (40° C./75% RH, 1 month): 99.7
Assay by HPLC, anhydrous, solvent free (40° C./75% RH, 3 months): 100.2
Assay by HPLC, anhydrous, solvent free (40° C./75% RH, Initial): 99.9
SMILES: N#Cc1ccc([C@H]2CCCc3cncn32)cc1.O=P(O)(O)O
